# Ab-14 light chain CDR variants: yeast mating affinities

From the AlphaSeq antibody data of Engelhart et al. 2022 (doi:10.1038/s41597-022-01779-4), copy in the FLAb collection.

Target peptide (SARS-CoV-2 spike, HR2 region): PDVDLGDISGINAS

Ab-14 is the parent antibody, in scFv form: VH, then three GGGGS repeats, then VL. The heavy chain is unchanged in all variants.
VH: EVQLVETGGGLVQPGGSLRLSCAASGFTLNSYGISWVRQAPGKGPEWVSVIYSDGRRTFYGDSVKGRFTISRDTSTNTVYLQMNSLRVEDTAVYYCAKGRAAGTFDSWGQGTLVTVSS
VL: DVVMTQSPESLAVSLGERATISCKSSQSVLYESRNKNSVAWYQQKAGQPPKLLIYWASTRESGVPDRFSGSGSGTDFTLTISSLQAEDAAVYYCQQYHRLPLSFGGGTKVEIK

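Phage display of a naive human antibody library on the peptide gave the parent. AAYL50 was designed without a model: most single CDR substitutions and a random sample of double and triple ones. The scFvs were displayed on barcoded MATa yeast, the peptide on MATalpha yeast. Mating (16 h, 30 °C) was followed by selection of diploids and sequencing of their barcodes. A regression on co-assayed BCL2-family reference pairs converts the normalised counts of each replicate to an apparent Kd. The assay was run in three technical replicates.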

Each variant is given by its three light chain CDRs, as the data file delimits them; those of the parent are KSSQSVLYESRNKNSVA, WASTRES, QQYHRLPLS.
Values are log10 of the apparent Kd in nM; lower means stronger binding.
Where no diploid with the target was found in that replicate, the entry reads "nd": below detection, most likely a poor binder, though not proof of it.
Empty control strains, which show no peptide, gave a signal in 18% of pairings with library AAYL50; the median was 4.19 and 95% of these signals were weaker than 2.99. No background was subtracted. For each scFv, signals with the empty controls are counted beside the result.

Variant KSSQSVLDESRNKESVA / WASTVES / QQYHRLPLS gave 0.65, 0.63, 0.72 (controls 1 of 9).
Variant KSSRSVLYESRNKNGVA / WASTRES / QQYHRWPLS gave 3.03, 3.14, 3.36 (controls 3 of 9).
Variant KSVQSVLYESRNKNSVA / WASTREF / QQYSRLPLS gave 1.18, 1.42, 1.42 (controls 1 of 9).
Variant KSSQSKLYEIRNKNSVA / WASTRES / QQYHVLPLS gave 1.06, 1.33, 1.22 (controls 1 of 9).
Variant KSSQSVLYESRNKNSVA / WASRRES / QNYHRKPLS gave 5.82, 3.94, 4.78 (controls 5 of 9).
Variant LSSQTVLYESRNKNSRA / WASTRES / QQYHRLPLS gave nd, nd, nd (controls 0 of 9).
Variant KSTQSVLYEIRNKNSVA / WASTRES / QQYHRLPLY gave nd, nd, nd (controls 0 of 9).
Variant KSNQSVLYESRNKNSVA / WASTREF / QQYHRLPWS gave 1.55, 1.15, 1.20 (controls 5 of 9).
Variant KSSQSVLYESRNANSVA / KASNRES / QQYHRLPLS gave 0.63, 1.01, 0.61 (controls 0 of 9).
Variant KSSQSVLYESRPKNSVA / WASTRHS / QQYHRLPSS gave 2.74, 2.37, 2.42 (controls 0 of 9).
Variant KSSQWVLYESRNKNSVY / WASTRES / QQCHRLPLS gave nd, nd, nd (controls 0 of 9).
Variant KSSQPVLYESTNKNFVA / WASTRES / QQYHRLPLS gave 2.68, 2.62, 2.63 (controls 2 of 9).
Variant KSSWSVLYEIRNKNSVP / WASTRES / QQYHRLPLS gave nd, nd, nd (controls 1 of 9).
Variant KSSQSVLYESRMKNGVA / WASTRES / QTYHRLPLS gave nd, nd, nd (controls 3 of 9).
Variant KSSQSVTYESRNKNSLA / WASTRES / QQYHRLPLA gave 1.25, 1.48, 1.31 (controls 0 of 9).
Variant KSLQSVLYELREKNSVA / WASTRES / QQYHRLPLS gave nd, nd, nd (controls 0 of 9).
Variant KSSQSVLYESRNKNSVA / WAQTRAS / QQGHRLPLS gave 1.47, 1.24, 1.35 (controls 1 of 9).
Variant KSSQSVLYTSRNKNSVA / WSSTRES / QQYHRLPDS gave nd, 5.28, 5.98 (controls 2 of 9).
Variant KSSQSVLYESRNKNSVA / WRNTRES / QQYHRLPLY gave nd, nd, nd (controls 0 of 9).
Variant KSSQSQLYESRNKNSVA / WASTRES / MQYHRLPLS gave 2.88, nd, nd (controls 6 of 9).
Variant KSSQSVLYESRNKNSVA / WRSTRES / QQYHFLPLS gave 4.00, nd, nd (controls 1 of 9).
Variant KSSQSVLVESPNKNSVA / WASTRES / QKYHRLPLS gave nd, nd, nd (controls 1 of 9).
Variant KSSQSVFYESRNKNSVA / WASTRES / NQYHRSPLS gave nd, nd, nd (controls 0 of 9).
Variant KSSQSVLYESRNLNSVA / WASTREP / QQPHRLPLS gave 5.92, nd, 5.74 (controls 1 of 9).
Variant KSSMSVLYESRNKLFVA / WASTRES / QQYHRLPLS gave nd, 4.91, nd (controls 2 of 9).
Variant KSSQSVLYESRNKNSVA / WISTRES / QQYHRLPVS gave 6.11, nd, 4.22 (controls 4 of 9).
Variant KSSQSVLYESRNKNSVA / WASTNES / QQKHRLTLS gave 5.48, 3.98, 3.99 (controls 3 of 9).
Variant KSSQSVLYESRNKNSVA / WASTRED / QMYLRLPLS gave 1.39, 1.26, 1.52 (controls 1 of 9).
Variant KSSQSVLYESRNKNSIA / WASTRES / QQYHVHPLS gave 1.96, 1.65, 1.99 (controls 5 of 9).
Variant KSSQSVLYESRNKNSVS / VAITRES / QQYHRLPLS gave 3.04, nd, nd (controls 0 of 9).
Variant WSSQSVLYESRNKNSVA / WASTRES / QQCHRLPVS gave 4.20, nd, nd (controls 2 of 9).
Variant KSSQSVLYESRNKNSHA / WASTRHS / QQYHRLPLS gave nd, nd, nd (controls 0 of 9).
Variant MSSQSVLYESRNKNSVA / WDSTRES / QQYTRLPLS gave nd, 3.19, nd (controls 3 of 9).
Variant KSNQSVLYESRNKNSVA / WFSTRES / QQYHRLYLS gave nd, 5.05, nd (controls 2 of 9).

A selection of 4 entries from above:

For KSNQSVLYESRNKNSVA / WASTREF / QQYHRLPWS, the assay gave 1.55, 1.15, 1.20 (controls 5 of 9).
For KSSRSVLYESRNKNGVA / WASTRES / QQYHRWPLS, the assay gave 3.03, 3.14, 3.36 (controls 3 of 9).
For KSSQSQLYESRNKNSVA / WASTRES / MQYHRLPLS, the assay gave 2.88, nd, nd (controls 6 of 9).
For KSSQSKLYEIRNKNSVA / WASTRES / QQYHVLPLS, the assay gave 1.06, 1.33, 1.22 (controls 1 of 9).